Source: patent US20260242405A1, “N-DERIVATIZED SIALIC ACIDS AND RELATED SIALOSIDES” (THE REGENTS OF THE UNIVERSITY OF CALIFORNIA, priority 2023, published 2026)

Test system: all sialidases tested (influenza NAs, hNEU2, SpNanA, PmST1)
Conditions: inhibitor 8.0 μM; Tables 4 and 5

SMILES | inhibitory activity and selectivity over all sialidases tested, in words
CC(=O)N[C@H]1[C@H]([C@H](O)[C@H](O)CO)OC(C(=O)O)=C[C@@H]1NC(C)=O [4NAcNeu5Ac2en] | not an effective inhibitor against any of the sialidases tested
CC(=O)N[C@H]1[C@H]([C@H](O)[C@H](O)CO)OC(C(=O)O)=C[C@@H]1N [4NH2Neu5Ac2en, 4-amino-2,3-dehydro-N-acetylneuraminic acid, reference compound] | selective inhibitors against influenza NAs
